Biological target: T1, human NPRA (Homo sapiens, UniProt P16066)
T1 construct: Full-Length cDNA Cloning and Generation of Cell Lines Overexpressing Natriuretic Peptide Receptors (NPRs); expressed in transfected cells; host or cells: Jump-in T-Rex HEK293 cells, pJTI R4 CMV-TO MCS pA vector, tetracycline induction
T1 sequence (P16066 33-1061): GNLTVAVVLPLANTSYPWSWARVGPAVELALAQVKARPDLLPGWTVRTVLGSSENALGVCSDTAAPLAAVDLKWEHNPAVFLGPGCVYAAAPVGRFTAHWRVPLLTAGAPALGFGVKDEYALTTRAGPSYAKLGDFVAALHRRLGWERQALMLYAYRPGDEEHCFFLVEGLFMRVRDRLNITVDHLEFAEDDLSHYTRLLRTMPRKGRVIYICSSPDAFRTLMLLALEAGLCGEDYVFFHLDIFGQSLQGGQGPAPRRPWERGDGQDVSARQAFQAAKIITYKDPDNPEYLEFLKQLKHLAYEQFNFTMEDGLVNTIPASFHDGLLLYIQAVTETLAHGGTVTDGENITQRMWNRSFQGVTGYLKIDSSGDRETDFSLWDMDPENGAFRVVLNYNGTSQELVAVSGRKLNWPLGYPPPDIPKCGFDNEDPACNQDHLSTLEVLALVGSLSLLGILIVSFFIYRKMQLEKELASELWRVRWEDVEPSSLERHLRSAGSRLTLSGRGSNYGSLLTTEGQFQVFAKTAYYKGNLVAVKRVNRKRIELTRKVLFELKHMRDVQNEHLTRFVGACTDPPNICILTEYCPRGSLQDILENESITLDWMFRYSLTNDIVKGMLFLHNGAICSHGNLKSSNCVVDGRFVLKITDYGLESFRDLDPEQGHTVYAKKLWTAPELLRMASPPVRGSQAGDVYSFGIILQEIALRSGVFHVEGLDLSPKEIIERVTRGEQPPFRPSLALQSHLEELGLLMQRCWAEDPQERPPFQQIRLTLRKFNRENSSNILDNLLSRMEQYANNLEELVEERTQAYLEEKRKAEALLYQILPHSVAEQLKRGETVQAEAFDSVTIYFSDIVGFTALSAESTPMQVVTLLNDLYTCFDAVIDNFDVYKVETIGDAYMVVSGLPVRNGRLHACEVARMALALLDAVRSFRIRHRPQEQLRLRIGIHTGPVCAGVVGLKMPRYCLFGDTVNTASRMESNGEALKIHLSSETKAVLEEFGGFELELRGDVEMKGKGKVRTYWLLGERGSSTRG
Test: Human NPRA cGMP activity assay (HTRF) in HEK293 cells overexpressing NPRA
Format: cell-based
Protocol: All sequences were verified by full-length sequencing performed by ACGT DNA Sequencing Services (Wheeling, IL). The target cDNA was cloned into pJTI R4 CMV-TO MCS pA vector and then co-transfected with pJT1R4 Int vector into Jump-in™ T-Rex™ HEK293 cells for mammalian inducible expression using Jump-in™ T-Rex™ HEK293 kit and Lipofectamine LTX and Plus Reagent following manufacturer's protocols, as briefly described below.
Jump-in™ T-Rex™ HEK293 cells were plated in a BioCOAT® poly-D-lysine coated 6-well plate (Becton Dickinson, cat no. 354413) at 1 million cells/well in 2 mL culture medium and incubated for 18 h at 37° C. and 5% CO2 to 50-70% confluence. A cDNA mix was made in a 50 mL tube by adding 1.5 μg target cDNA, 1.5 μg pJT1R4 Int vector, 3 μL Plus Reagent, and 300 μL Opti-MEM I sequentially into the tube. A reagent mix was made in a separate 50 mL tube by adding 7.5 μL Lipofectamine LTX into 300 μL Opti-MEM I. The mixtures were incubated for 5 min at room temperature. The cDNA mix was then transferred into the reagent mix, mixed well, and incubated for additional 30 min at room temperature. A 500 μL of cDNA/Lipofectamine complex was then transferred to the wells of the cell plate in which the culture medium was changed to 2 mL of transfection medium containing DMEM with 4.5 g/L D-glucose supplemented with 10% FBS-HI and 20 mM HEPES. Transfected cells were cultured for 48 h in an incubator at 37° C. and 5% CO2. A subclone or pool from each overexpressing cell line was maintained in culture medium with the addition of 2 mg/mL G418 sulfate for the clone selection based on its built-in resistance to G418 sulfate for at least 3 weeks with medium changed every 2-3 days.
NPRs were overexpressed in T-Rex™ HEK293 cells following the induction with 300 ng/mL tetracycline in culture medium for 48 h. Induced cell lines in an exponential growth phase were treated with 0.05% trypsin-EDTA for a few seconds at room temperature, harvested in cell medium containing FBS to neutralize the trypsin, counted, and cryopreserved at the density of 2 million cells/mL in cell preservation solution containing FBS-HI with 5% DMSO. Cryopreserved cells were stored at −80° C. for a few days prior to transferring to a liquid nitrogen tank. Induced cell lines were then used for suspension assays to measure the activity of polypeptides to stimulate cGMP production in cGMP assays or for the preparation of cell membranes to measure the binding activity of polypeptides in competitive radioligand binding assays, as described below.
Test polypeptides were added starting at 10 μM concentration and at 10-fold decreasing concentrations to obtain 8-point concentration-response curves (i.e., 10 μM to 1 pM). The quantity of cGMP generated was detected using HTRF® technology and normalized to maximum amount produced by 100 nM amidated rat ANP and the minimum amount produced by assay buffer. Detailed steps are outlined below.
Stock solutions of test polypeptides (2 mM) dissolved in DMSO were first diluted 100-fold in assay buffer containing HBSS with Ca^2+ and Mg^2+, 5 mM HEPES, 0.5 mM IBMX, and 0.1% BSA or 0.1% casein (pH 7.4). The polypeptides were further serially diluted in 1:10 dilution steps in assay buffer containing 0.1% BSA or 0.1% casein to generate 8-point 2× working stock solutions ranging from 20 μM to […].
A 10 μL cell suspension containing 4000 cells was plated in Costar® half-area white opaque 96-well plates (Corning, cat no. 3693). Then 10 μL of assay buffer (basal activity), 200 nM of amidated rat ANP (maximum activity) or 2× working stock solutions of test polypeptides were transferred into the plate. Final concentration of DMSO in each well was 0.5%. The plate was shaken for 15 sec and then incubated for 40 min at room temperature.
The cGMP generated was measured using cGMP kit following the manufacturer's directions, as described below.

[1] = cGMP Assay (EC50, pM) w/Casein hNPRA, assay buffer with 0.1% casein
[2] = cGMP Assay (EC50, pM) w/BSA hNPRA, assay buffer with 0.1% BSA

Structure (SMILES) | EC50 [1] [pM] | EC50 [2] [pM]
CC[C@H](C)[C@@H]1NC(=O)[C@H](CCCNC(=N)N)NC(=O)[C@H](CC(=O)O)NC(=O)[C@H]([C@@H](C)CC)NC(=O)[C@H](CCCNC(=N)N)NC(=O)CNC(=O)CNC(=O)[C@H](Cc2ccccc2)NC(=O)[C@@H](NC(=O)[C@H](CO)NC(=O)[C@H](CO)NC(=O)[C@H](CCCNC(=N)N)NC(=O)CCNC(=O)[C@H](CCCCN)NC(=O)[C@H](CCC(=O)O)NC(=O)CCOCCOCCOCCOCCOCCOCCOCCOCCOCCOCCOCCOCCNC(=O)CNC(=O)[C@H](CCCCN)NC(=O)[C@H](CCC(=O)O)NC(=O)[C@H](CCCCN)NC(=O)[C@H](CCC(=O)O)NC(=O)[C@H](CCCCN)NC(=O)[C@H](CCC(=O)O)NC(=O)CC[C@H](NC(=O)CCCCCCCCCCCCCCCCCCC(=O)O)C(=O)O)CSCSC[C@@H](C(=O)N2CCC[C@H]2C(=O)N[C@@H](CO)C(=O)N[C@@H](Cc2ccccc2)C(=O)N[C@@H](CCCNC(=N)N)C(=O)N[C@@H](Cc2c[nH]cn2)C(=O)NCC(=O)NCC(=O)N[C@@H](CCCCN)C(=O)N[C@@H](CO)C(=O)N[C@@H](CO)C(=O)NCC(=O)N[C@@H](C)C(=O)N2CCC[C@H]2C(=O)N2CCC[C@H]2C(=O)N2CCC[C@H]2C(=O)N[C@@H](CO)C(N)=O)NC(=O)CNC(=O)[C@H](CC(C)C)NC(=O)CNC(=O)[C@H](CO)NC(=O)[C@H](Cc2ccc(O)cc2)NC(=O)[C@H](Cc2c[nH]cn2)NC(=O)CNC1=O [Example 77] | 1270 | 
CC[C@H](C)[C@@H]1NC(=O)[C@H](CCCNC(=N)N)NC(=O)[C@H](CC(=O)O)NC(=O)[C@H]([C@@H](C)CC)NC(=O)[C@H](CCCNC(=N)N)NC(=O)CNC(=O)CNC(=O)[C@H](Cc2ccccc2)NC(=O)[C@@H](NC(=O)[C@H](CO)NC(=O)[C@H](CO)NC(=O)[C@H](CCCNC(=N)N)NC(=O)CCNC(=O)[C@H](CCCCN)NC(=O)[C@H](CCC(=O)O)NC(=O)CCOCCOCCOCCOCCOCCOCCOCCOCCOCCOCCOCCOCCOCCOCCOCCOCCOCCOCCOCCOCCOCCOCCOCCOCCNC(=O)CNC(=O)[C@H](CCCCN)NC(=O)[C@H](CCC(=O)O)NC(=O)[C@H](CCCCN)NC(=O)[C@H](CCC(=O)O)NC(=O)[C@H](CCCCN)NC(=O)[C@H](CCC(=O)O)NC(=O)CC[C@H](NC(=O)CCCCCCCCCCCCCCCCCCC(=O)O)C(=O)O)CSCSC[C@@H](C(=O)N2CCC[C@H]2C(=O)N[C@@H](CO)C(=O)N[C@@H](Cc2ccccc2)C(=O)N[C@@H](CCCNC(=N)N)C(=O)N[C@@H](Cc2c[nH]cn2)C(=O)NCC(=O)NCC(=O)N[C@@H](CCCCN)C(=O)N[C@@H](CO)C(=O)N[C@@H](CO)C(=O)NCC(=O)N[C@@H](C)C(=O)N2CCC[C@H]2C(=O)N2CCC[C@H]2C(=O)N2CCC[C@H]2C(=O)N[C@@H](CO)C(N)=O)NC(=O)CNC(=O)[C@H](CC(C)C)NC(=O)CNC(=O)[C@H](CO)NC(=O)[C@H](Cc2ccc(O)cc2)NC(=O)[C@H](Cc2c[nH]cn2)NC(=O)CNC1=O [Example 78] |  | 19700
CC[C@H](C)[C@@H]1NC(=O)[C@H](CCCNC(=N)N)NC(=O)[C@H](CC(=O)O)NC(=O)[C@H]([C@@H](C)CC)NC(=O)[C@H](CCCNC(=N)N)NC(=O)CNC(=O)CNC(=O)[C@H](Cc2ccccc2)NC(=O)[C@@H](NC(=O)[C@H](CO)NC(=O)[C@H](CO)NC(=O)[C@H](CCCNC(=N)N)NC(=O)[C@H](CCCNC(=N)N)NC(=O)[C@H](Cc2ccncc2)NC(=O)[C@H](CO)NC(=O)COCCOCCNC(=O)COCCOCCNC(=O)COCCOCCNC(=O)COCCOCCNC(=O)COCCOCCNC(=O)COCCOCCNC(=O)CNC(=O)[C@H](CCCCN)NC(=O)[C@H](CCC(=O)O)NC(=O)[C@H](CCCCN)NC(=O)[C@H](CCC(=O)O)NC(=O)[C@H](CCCCN)NC(=O)[C@H](CCC(=O)O)NC(=O)CC[C@H](NC(=O)CCCCCCCCCCCCCCCCCCC(=O)O)C(=O)O)CSCSC[C@@H](C(=O)N2CCC[C@H]2C(=O)N[C@@H](CO)C(=O)N[C@@H](Cc2ccccc2)C(=O)N[C@@H](CCCNC(=N)N)C(=O)N[C@@H](Cc2c[nH]cn2)C(=O)NCC(=O)NCC(=O)N2CCC[C@H]2C(=O)N2CCC[C@H]2C(=O)N[C@@H](CO)C(=O)NC(C)(C)C(=O)N[C@@H](CCCCN)C(=O)N2CCC[C@H]2C(=O)N2CCC[C@H]2C(=O)N2CCC[C@H]2C(=O)N[C@@H](CCCCN)C(N)=O)NC(=O)CNC(=O)[C@H](CC(C)C)NC(=O)CNC(=O)[C@H](CO)NC(=O)[C@H](Cc2ccc(O)cc2)NC(=O)[C@H](Cc2c[nH]cn2)NC(=O)CNC1=O [Example 97] | 720 | 
CC[C@H](C)[C@@H]1NC(=O)[C@H](CCCNC(=N)N)NC(=O)[C@H](CC(=O)O)NC(=O)[C@H]([C@@H](C)CC)NC(=O)[C@H](CCCNC(=N)N)NC(=O)[C@H](CCCCN)NC(=O)CNC(=O)[C@H](Cc2ccccc2)NC(=O)[C@@H](NC(=O)[C@H](CO)NC(=O)[C@H](CO)NC(=O)[C@H](CCCNC(=N)N)NC(=O)CCNC(=O)[C@H](CCCCN)NC(=O)[C@H](CCC(=O)O)NC(=O)CCOCCOCCOCCOCCOCCOCCOCCOCCOCCOCCOCCOCCOCCOCCOCCOCCOCCOCCOCCOCCOCCOCCOCCOCCNC(=O)CNC(=O)[C@H](CCCCN)NC(=O)[C@H](CCC(=O)O)NC(=O)[C@H](CCCCN)NC(=O)[C@H](CCC(=O)O)NC(=O)[C@H](CCCCN)NC(=O)[C@H](CCC(=O)O)NC(=O)CC[C@H](NC(=O)CCCCCCCCCCCCCCCCCCC(=O)O)C(=O)O)CSCSC[C@@H](C(=O)N2CCC[C@H]2C(=O)N[C@@H](CO)C(=O)N[C@@H](Cc2ccccc2)C(=O)N[C@@H](CCCNC(=N)N)C(=O)N[C@@H](Cc2c[nH]cn2)C(=O)NCC(=O)NCC(=O)N[C@@H](CCCCN)C(=O)N[C@@H](CO)C(=O)N[C@@H](CO)C(=O)NCC(=O)N[C@@H](C)C(=O)N2CCC[C@H]2C(=O)N2CCC[C@H]2C(=O)N2CCC[C@H]2C(=O)N[C@@H](CO)C(N)=O)NC(=O)CNC(=O)[C@H](CC(C)C)NC(=O)CNC(=O)[C@H](CO)NC(=O)[C@H](Cc2ccc(O)cc2)NC(=O)[C@H](Cc2c[nH]cn2)NC(=O)CNC1=O [Example 102] |  | 3490
